In patent publication US10435388B2, “Selective inhibitors of clinically important mutants of the EGFR tyrosine kinase” (CS PHARMATECH LIMITED, priority 2016, dated 2019) one finds IC50 data, which are given here for 1 molecule.

Amino acid sequences for entries named in this document (tags omitted). A change or cut given only in a name is not applied to a line headed by its entry. Residues count along the entry.
UniProt P00533, whole entry, looked up: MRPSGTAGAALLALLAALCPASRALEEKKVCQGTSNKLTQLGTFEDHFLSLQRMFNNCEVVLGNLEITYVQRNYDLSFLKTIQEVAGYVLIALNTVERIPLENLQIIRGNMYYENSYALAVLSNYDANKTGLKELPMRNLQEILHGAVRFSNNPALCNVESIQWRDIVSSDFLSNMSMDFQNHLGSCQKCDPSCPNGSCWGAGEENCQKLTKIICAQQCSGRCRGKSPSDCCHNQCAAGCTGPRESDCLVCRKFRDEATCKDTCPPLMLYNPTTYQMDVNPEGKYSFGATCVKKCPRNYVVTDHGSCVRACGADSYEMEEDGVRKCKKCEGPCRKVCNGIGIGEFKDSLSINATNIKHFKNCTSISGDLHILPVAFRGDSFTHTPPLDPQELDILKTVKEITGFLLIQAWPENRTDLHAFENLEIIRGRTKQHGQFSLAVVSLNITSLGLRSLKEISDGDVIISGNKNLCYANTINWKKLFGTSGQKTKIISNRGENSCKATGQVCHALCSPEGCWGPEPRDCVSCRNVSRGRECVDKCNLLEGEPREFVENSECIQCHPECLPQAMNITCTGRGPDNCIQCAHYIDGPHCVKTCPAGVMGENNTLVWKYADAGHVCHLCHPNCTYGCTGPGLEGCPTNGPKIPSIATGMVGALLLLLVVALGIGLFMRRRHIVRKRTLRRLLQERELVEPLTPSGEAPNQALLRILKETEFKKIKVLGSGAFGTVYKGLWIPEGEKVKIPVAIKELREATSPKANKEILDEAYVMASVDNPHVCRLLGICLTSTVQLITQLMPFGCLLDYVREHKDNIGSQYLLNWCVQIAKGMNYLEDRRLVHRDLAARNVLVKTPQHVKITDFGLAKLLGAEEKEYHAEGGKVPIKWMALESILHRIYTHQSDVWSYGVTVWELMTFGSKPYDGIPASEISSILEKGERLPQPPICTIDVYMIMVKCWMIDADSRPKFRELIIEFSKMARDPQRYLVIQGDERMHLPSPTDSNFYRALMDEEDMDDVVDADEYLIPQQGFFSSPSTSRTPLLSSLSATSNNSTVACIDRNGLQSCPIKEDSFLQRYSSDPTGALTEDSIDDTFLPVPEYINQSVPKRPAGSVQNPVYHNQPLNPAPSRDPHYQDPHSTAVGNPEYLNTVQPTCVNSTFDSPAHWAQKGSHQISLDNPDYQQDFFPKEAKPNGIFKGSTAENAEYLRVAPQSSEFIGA
UniProt P00533, whole entry T790M/L858R, looked up: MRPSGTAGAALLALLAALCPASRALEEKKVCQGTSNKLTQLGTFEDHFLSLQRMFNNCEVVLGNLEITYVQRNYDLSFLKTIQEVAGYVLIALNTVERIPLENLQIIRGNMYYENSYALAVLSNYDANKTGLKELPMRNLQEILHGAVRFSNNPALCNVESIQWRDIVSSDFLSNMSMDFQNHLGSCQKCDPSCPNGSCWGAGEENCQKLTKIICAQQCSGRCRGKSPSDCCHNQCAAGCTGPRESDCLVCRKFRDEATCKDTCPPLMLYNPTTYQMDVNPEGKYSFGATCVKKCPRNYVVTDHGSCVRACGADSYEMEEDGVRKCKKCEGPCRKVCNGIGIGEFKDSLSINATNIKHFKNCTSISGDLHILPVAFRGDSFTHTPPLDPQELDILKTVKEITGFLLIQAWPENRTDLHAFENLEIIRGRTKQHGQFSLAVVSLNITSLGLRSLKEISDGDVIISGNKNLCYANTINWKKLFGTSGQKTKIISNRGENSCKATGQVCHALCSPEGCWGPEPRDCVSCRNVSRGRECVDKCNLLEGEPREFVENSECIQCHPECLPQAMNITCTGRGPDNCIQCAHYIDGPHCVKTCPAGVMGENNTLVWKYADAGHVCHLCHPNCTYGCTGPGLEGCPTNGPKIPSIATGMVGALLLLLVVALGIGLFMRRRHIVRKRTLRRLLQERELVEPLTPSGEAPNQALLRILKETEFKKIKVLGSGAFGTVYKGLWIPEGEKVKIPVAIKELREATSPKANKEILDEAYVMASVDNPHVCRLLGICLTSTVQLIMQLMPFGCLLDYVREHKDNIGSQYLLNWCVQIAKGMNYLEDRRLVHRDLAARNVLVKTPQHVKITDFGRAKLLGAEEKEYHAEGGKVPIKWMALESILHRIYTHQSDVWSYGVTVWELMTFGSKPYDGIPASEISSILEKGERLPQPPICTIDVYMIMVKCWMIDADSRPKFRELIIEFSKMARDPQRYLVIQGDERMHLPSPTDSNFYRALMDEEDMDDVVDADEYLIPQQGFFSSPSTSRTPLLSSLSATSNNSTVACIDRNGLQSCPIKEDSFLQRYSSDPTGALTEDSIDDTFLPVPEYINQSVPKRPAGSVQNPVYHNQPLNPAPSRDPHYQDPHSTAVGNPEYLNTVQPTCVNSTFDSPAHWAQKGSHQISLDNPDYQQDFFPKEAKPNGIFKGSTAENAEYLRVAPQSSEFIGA
UniProt P08069, 959-1367 limits assumed: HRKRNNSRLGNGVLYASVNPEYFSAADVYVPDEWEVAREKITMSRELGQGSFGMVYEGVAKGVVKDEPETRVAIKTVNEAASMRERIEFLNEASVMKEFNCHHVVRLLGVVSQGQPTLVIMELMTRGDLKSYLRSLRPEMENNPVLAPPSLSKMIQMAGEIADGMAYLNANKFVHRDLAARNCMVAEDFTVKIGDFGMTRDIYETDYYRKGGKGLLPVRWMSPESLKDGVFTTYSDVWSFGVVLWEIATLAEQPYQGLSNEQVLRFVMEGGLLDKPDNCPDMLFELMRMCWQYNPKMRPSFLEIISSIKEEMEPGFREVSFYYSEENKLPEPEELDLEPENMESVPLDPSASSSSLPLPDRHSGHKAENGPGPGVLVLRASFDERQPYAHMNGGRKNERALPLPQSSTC
UniProt P06213, 989-1382 limits assumed: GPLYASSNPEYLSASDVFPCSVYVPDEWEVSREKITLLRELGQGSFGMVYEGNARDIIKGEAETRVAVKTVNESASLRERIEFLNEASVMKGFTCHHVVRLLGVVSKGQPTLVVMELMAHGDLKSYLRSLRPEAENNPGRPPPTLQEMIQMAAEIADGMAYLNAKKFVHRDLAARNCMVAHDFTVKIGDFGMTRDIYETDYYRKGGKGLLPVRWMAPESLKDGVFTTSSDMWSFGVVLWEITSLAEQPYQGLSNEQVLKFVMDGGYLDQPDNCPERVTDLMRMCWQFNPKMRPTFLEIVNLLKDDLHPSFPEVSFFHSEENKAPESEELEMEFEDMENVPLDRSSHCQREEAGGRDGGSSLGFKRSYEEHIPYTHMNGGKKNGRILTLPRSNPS

One assay deals with PC9 cells (SM). Put plainly: PC-9 growth inhibition assay (cell proliferation), Method B. The conditions noted are these: read-out: SM (PC9) IC50 nM, cellular proliferation, 72 h, several runs.
A further assay relates to H1975 cells (DM). Put plainly: H1975 inhibition assay (cell proliferation), Method B. In kind it is cell-based. The settings on record: read-out: DM (H1975) IC50 nM, cellular proliferation, 72 h, several runs.
For another assay, the system named is A431 cells (WT). As to the kind of experiment: A431 inhibition assay (cell proliferation), Method B. The settings on record: read-out: WT (A431) IC50 nM, cellular proliferation, 72 h, several runs.
The target in assay [1] is p-EGFR in PC9 cells (Exon 19 deletion EGFR) (UniProt P00533). As to the kind of experiment: Exon19 deletion EGFR (activating single mutant) PC-9 cellular autophosphorylation assay. The settings on record: read-out: PC-9 IC50, 2 h treatment, ELISA.
Assay [2] concerns the target p-EGFR in A431 cells (wild type EGFR, EGF stimulated) (Homo sapiens, UniProt P00533). Put plainly: Wild type EGFR A431 autophosphorylation inhibition assay (ELISA). The conditions noted are these: read-out: A431 IC50, cellular EGFR autophosphorylation, 2 h treatment, EGF stimulation 10 min. (ELISA stands for enzyme-linked immunosorbent assay.)
The target of the next assay is IGF-1R (Homo sapiens, UniProt P08069). As to the kind of experiment: IGF-1R inhibition assay (Caliper EZ Reader). The conditions noted are these: read-out: IC50 (nM) IGF-1R; enzyme assay.
In another assay the target is INSR (Homo sapiens, UniProt P06213). As to the kind of experiment: INSR inhibition assay (Caliper EZ Reader). The conditions noted are these: read-out: IC50 (nM) INSR; enzyme assay.
Assay [3] concerns the target p-EGFR in H1975 cells (L858R/T790M double mutant EGFR) (UniProt P00533).

In the case of `C=CC(=O)Nc1cc(Nc2nccc(-n3nc(NCC)c4ncccc43)n2)c(OC)cc1N(C)CCN(C)C`, the IC50 in the assay with PC9 cells (SM) is 0.81 nM; in the assay with H1975 cells (DM), 1.96 nM; in the assay with A431 cells (WT), 440 nM; in assay [1], 1.69 nM; in assay [2], 27.2 nM; at IGF-1R it was 869 nM. Further, the values for the IC50 (at INSR; in assay [3]) were 851 nM and 3.05 nM, respectively.
